The numbers were not newly measured in article PMC4023695 (ACS medicinal chemistry letters, 2014), which cites them from elsewhere.

Protein sequences, listed by entry. Tags and fused reporters are not part of them.
UniProt P33535, whole entry: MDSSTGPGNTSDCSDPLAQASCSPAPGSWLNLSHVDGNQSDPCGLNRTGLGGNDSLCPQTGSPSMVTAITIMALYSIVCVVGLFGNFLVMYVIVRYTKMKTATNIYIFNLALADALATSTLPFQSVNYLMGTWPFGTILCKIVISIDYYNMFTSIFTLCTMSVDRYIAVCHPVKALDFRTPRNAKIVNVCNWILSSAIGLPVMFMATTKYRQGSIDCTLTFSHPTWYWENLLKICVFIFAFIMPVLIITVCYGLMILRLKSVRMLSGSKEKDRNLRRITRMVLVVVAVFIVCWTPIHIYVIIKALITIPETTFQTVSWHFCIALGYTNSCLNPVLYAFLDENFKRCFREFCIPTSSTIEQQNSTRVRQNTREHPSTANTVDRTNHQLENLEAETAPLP

For the series, the target named is MOR (Rattus norvegicus, UniProt P33535). The note with it: read-out: Kiμ; DALDA literature characterisation, no reference given; cited from earlier work.

Turning to Tyr-D-Arg-Phe-Lys-NH2 [DALDA], the Ki was 1.69 nM.
